These results are taken from patent US20130171073A1 (CEDARS-SINAI MEDICAL CENTER, priority 2010, published 2013).

This assay deals with AtT20 corticotroph tumor xenografts. Description: Plasma ACTH and serum corticosterone in AtT20 xenograft-bearing nude mice. Conditions: 150 mg/kg oral gavage twice daily, three weeks, n=13-14.

In the case of `CC[C@H](CO)Nc1nc(NCc2ccccc2)c2ncn(C(C)C)c2n1` [R-roscovitine], the “serum corticosterone levels (mean±S.E.)” value (vehicle 1046±109 ng/ml) worked out at 561 ± 72 ng/mL. Further, the “plasma ACTH levels (mean±S.E.)” value (vehicle 1256±596 pg/ml) turned out to be 596 ± 103 pg/mL.
